{"source": "patent US20030086820A1", "about": "(priority 2001, published 2003)", "target": "Bovine serum albumin (BSA) (Bos taurus, UniProt P02769)"}
{"substance": "potassium hydroxide [KOH]", "values": [{"measurement": "protein removed", "value": "less than 1 mg/cm^2"}]}
